Data on three molecules can be found in ChEMBL document CHEMBL3784945, “Isoindolinone compounds active as Kv1.5 blockers identified using a multicomponent reaction approach” (Bioorg Med Chem Lett, 2016).

Sequences of proteins named here, by UniProt entry; tags and fusion partners are left off.
UniProt P22460, whole entry: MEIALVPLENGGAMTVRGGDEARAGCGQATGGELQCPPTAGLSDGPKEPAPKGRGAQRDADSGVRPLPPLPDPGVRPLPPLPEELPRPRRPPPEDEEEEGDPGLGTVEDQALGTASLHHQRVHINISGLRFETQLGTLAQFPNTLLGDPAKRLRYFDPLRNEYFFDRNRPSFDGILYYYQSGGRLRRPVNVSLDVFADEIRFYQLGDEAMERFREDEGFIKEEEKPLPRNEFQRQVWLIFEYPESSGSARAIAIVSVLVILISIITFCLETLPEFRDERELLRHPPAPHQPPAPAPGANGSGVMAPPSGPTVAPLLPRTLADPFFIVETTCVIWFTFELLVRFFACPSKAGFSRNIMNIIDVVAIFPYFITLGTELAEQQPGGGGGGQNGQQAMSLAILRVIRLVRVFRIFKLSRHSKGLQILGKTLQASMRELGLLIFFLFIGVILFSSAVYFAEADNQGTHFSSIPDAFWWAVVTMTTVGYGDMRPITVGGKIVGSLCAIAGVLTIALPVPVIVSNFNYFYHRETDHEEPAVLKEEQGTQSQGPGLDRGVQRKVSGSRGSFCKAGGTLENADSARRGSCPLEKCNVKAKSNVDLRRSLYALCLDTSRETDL

The test addresses Potassium voltage-gated channel subfamily A member 5 (Homo sapiens, UniProt P22460). Description: Inhibition of human Kv1.5 channel by QPatch-clamp method. A general note: Patch clamp records ionic current or voltage across a cell membrane.
In general, IC50 refers to the concentration that inhibits the measured activity by half. Higher therefore signals weaker potency. As for `CC(C)(C)NC(=O)C1c2ccccc2C(=O)N1Cc1ccccc1-c1ccccc1` (single isomer, unassigned; enantiomer 2), half-maximal inhibition (IC50) was put at 3000 nM.
`CC(C)(C)NC(=O)C1c2ccccc2C(=O)N1Cc1ccccc1-c1ccccc1` (racemic) displayed an IC50 of 900 nM.
In turn, `CC(C)(C)NC(=O)C1c2ccccc2C(=O)N1Cc1ccccc1-c1ccccc1` (single isomer, unassigned; enantiomer 1) yielded a concentration for half-maximal inhibition (IC50) of 1000 nM.
